{"source": "patent US10736859B2", "about": "“Eutectic formulations of cyclobenzaprine hydrochloride and amitriptyline hydrochloride” (Tonix Pharma Holdings Limited, priority 2013, dated 2020)", "assay": "DSC, FT-IR/ATR and XRPD compatibility of Cyclobenzaprine HCl with additional excipients, mixed (A) and milled (B) 1:1 mixtures (Example 2)", "assay_type": "physicochemical", "settings": "for Interactions between Cyclobenzaprine HCl and excipients, Mixture 1:1 (mixed): mixture A, mechanical mixing only; for Interactions between Cyclobenzaprine HCl and excipients, Mixture 1:1 (mixed) / Interactions between Cyclobenzaprine HCl and excipients, Mixture 1:1 (milled): DSC; for Interactions between Cyclobenzaprine HCl and excipients, Mixture 1:1 (milled): mixture B, ground in agate mortar", "protocol": "As described above, thermal analytical techniques were further used to assess the compatibility of a drug product (tablet) containing Cyclobenzaprine HCl (API). The compatibility assessment was carried out between the API and additional excipients in a 1:1 ratio. The 1:1 API-excipient mixtures were formed in two different ways: first, by mixing only, and second, by strong milling in an agate mortar. The thermal behavior recorded in the two different mixtures were compared with those of the single components. On the basis of thermal events recorded for each component and for the mixtures, the analyses were carried out by investigating the meanings of the peaks recorded by differential scanning calorimetry (DSC) in mixtures between the API and the excipients. Furthermore, in order to define the nature of the interaction, the Fourier Transformate Infra Red Spectroscopy with Total Attenuated Reflectance (FT-IR/ATR) and X-ray powder diffraction (XRPD) of some samples (API, excipient, and mixed and milled mixtures) was carried out and compared.\nAliquots of API and each excipient were weighed in a ratio of 1:1 and ground in an agate mortar. Then, the homogeneous mixtures were analyzed. These sample mixtures were labeled “B”, while the mechanical-only mixtures were labeled “A.”\nThe DSC heating curves were obtained by TA 821 DSC Mettler instrument under the following conditions: • Heating rate: 10° C./min • Ambient: Nitrogen 30 mL/min • Sample holder: normal open aluminum pan • Temperature range: from 25° C. to 250° C. • Instrument calibration: Indium sample purity 99.999% Fourier Transformate Infra Red Spectroscopy with Total Attenuated Reflectance (FT-IR/ATR)\nThe FT-IR spectra were collected with a Perkin Elmer spectrum Two instrument with air as background and 4 cm^−1 resolution.\nX-ray powder diffraction (XRPD) tests were performed with the ULTIMA IV instrument (Rigaku), laying the sample on a static sample holder. The X-ray focusing slit has a variable width, interlocked with the q value. The X-ray tube has a Copper target, with a current intensity of 40 mA and a voltage of 40 kV. Radiation was generated by the Cockcroft-Walton method, and was constituted by Kα1 (1.540562 Å) and Kα2 (1.544398 Å). The analytical conditions were: • Fixed Time; sampling width 0.02 deg, scanning rate 1.3 s/step, 2 q range 3.35 deg and sample holder; amorphous glass equiangular 9200/2G, 0.2 mm deep. The sample was pressed with a glass plate.", "key": {"[1]": {"settings": "listed as Disodium Glycine carbonate"}}, "data": [{"substance": "Disodium Glycine Carbonate [Di Sodium Glycine carbonate]", "values": [{"measurement": "Chemical acid-base reaction by FT-IR/ATR", "setting": "mixture A 1:1 with Cyclobenzaprine HCl, room temperature, chlorohydrate band 3000-2000 cm-1", "value": "no chemical acid-basis reaction occurred"}, {"measurement": "Interactions between Cyclobenzaprine HCl and excipients, Mixture 1:1 (mixed)", "value": "Physical"}, {"measurement": "Interactions between Cyclobenzaprine HCl and excipients, Mixture 1:1 (mixed)", "setting": "[1]", "value": "physical complex melting at a lower temperature"}, {"measurement": "Interactions between Cyclobenzaprine HCl and excipients, Mixture 1:1 (milled)", "value": "Physical"}, {"measurement": "Interactions between Cyclobenzaprine HCl and excipients, Mixture 1:1 (milled)", "setting": "[1]", "value": "physical complex melting at a lower temperature"}]}]}
